Where “and” joins values, the source holds several entries; their conditions need not be identical. Equal entries are not always repeated.
Target: His-ERC1(270–370) (mouse)
Assay: AlphaScreen or HTRF; ALPHA saturation binding, apparent Kd: 5, 15 or 45 nM His-ERC1(270–370) titrated with GST-LL5β(381–510) (6.25-400 nM); anti-GST acceptor and anti-6xHis donor beads; 25 mM HEPES pH 7.4, 100 mM NaCl, 0.1% BSA, room temperature; one-site model, GST-LL5β values below 100 nM considered

Kd: 99.8 nM and 110 nM and 78.8 nM
Substance: GST-LL5β(381–510) (domain or fragment)

Source: PMC10337942
